Screening results (PubChem)
Compounds with a hit are over-represented: about 1.3% of the library has one in this group of screens.
CFTR F508del cor: CFTR F508del correction in bronchial cells | CFBE cells, YFP halide quenching; stimulated with forskolin plus potentiator P3; % fluorescence drop versus neutral controls | activity (quench increase), % at 7.58 µM | actives 0.36% (n = 350,000) | AID 720511;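 active = mean added fluorescence quench of at least 8% versus neutral control, with both replicates also reaching 8%; inconclusive = only one of the mean or replicate conditions met; inactive = mean below 8% and not both replicates reaching 8%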;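 note: cells transiently co-express mutant CFTR-F508del with the halide-sensitive YFP; corrector assay measuring rescue of mutant channel to the surface after 24 h compound exposure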
PglD inh: inhibitors of Campylobacter jejuni PglD acetyltransferase. purified PglD enzyme, DTNB colorimetric CoA detection. AID 602405. actives 0.098% (n = 360,000). inhibition, % at 12.5 µM; in the data active = inhibition above about 16%, passing the limit was not always enough; inconclusive = no clear call, values can overlap the other calls
LGR2 antag: blocks bursicon-induced cAMP signaling via Drosophila LGR2. HEK293 LGR2, CRE-luciferase, bursicon-stimulated, 4 h. inhibition, % at 9.99 µM. actives 0.35% (n = 380,000). AID 720647;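 active = drop in luminescence signal, shown as inhibition above about 50% in the replicate tests, limit read from the data, passing the limit was not always enough; inconclusive = probably only some replicates passing the limit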;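 note: agonist challenge used bursicon conditioned medium at about half maximal strength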
miR-122 sensor: inhibitors of miR-122 in Huh7 cells | AID 602342 | Huh7 miR-122 Renilla luciferase sensor, 48 h; neutral wells = 0, positive control = 100 | activation (reporter increase), % at 12.5 µM | actives 0.3% (n = 340,000);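 active = mean replicate activation score at least 90 and every replicate individually at or above 90; inconclusive = only one of the two criteria met; inactive = neither criterion met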;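 note: higher luciferase means less miR-122 activity so hits act as miR-122 inhibitors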
EWS-Fli block: inhibitors of EWS/Fli oncoprotein transcriptional activity. inhibition, % at 12.6 µM. actives 0.67% (n = 350,000). A673 NR0B1-luciferase reporter, viability-normalised;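 active = mean inhibition of at least 50% after viability correction, with every replicate also passing that limit; inconclusive = mean reaches 50% but only one of two replicates passes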;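 note: firefly luciferase signal divided by Alamar Blue viability fluorescence both relative to DMSO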
UUG fidelity: modulators of yeast start codon fidelity, primary screen, whole organism, S. cerevisiae, single point, plate reader; S. cerevisiae UUG-firefly luciferase reporter, luminescence/redox ratio; activity score, % at 18.7 µM; 0.13% of 350,000 active; AID 602363, 2012;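 active = replicate mean at a twofold rise or more, about +100% in these data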;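 also: firefly luciferase made from a UUG start codon reports start codon fidelity; reporter light over untreated wells divided by growth signal over untreated wells; some hits fall short of that in this replicate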
* hit, by the source's call; ? = inconclusive; / = no result given; [ ] = remark or other dose.

SMILES | CFTR F508del cor | PglD inh | LGR2 antag | miR-122 sensor | EWS-Fli block | UUG fidelity
O=C(c1ccc(S(=O)(=O)NCC2CCCO2)cc1)N1CCN(c2ccccc2)CC1 (configuration not stated) | 0.2 | / | / | / | 6.2 | /
O=C(CCc1ccc(S(=O)(=O)NCCc2ccccc2)cc1)NCc1ccc2c(c1)OCO2 | / | -7.2 | / | 196.0* | / | -17.3
O=C(CCc1ccc(S(=O)(=O)NCc2ccccc2)cc1)NCc1ccc2c(c1)OCO2 | / | -3.9 | -45.0 | 7.4 | / | -3.0
COc1ccc(Oc2ccc(/C=C/C(=O)c3ccc(O)cc3)cc2[N+](=O)[O-])cc1 | / | / | / | / | 74.6* | /
O=C(/C=C/c1ccc(O)c([N+](=O)[O-])c1)c1ccc2ccccc2c1 | -1.7 | -2.5 | -18.0 | 7.2 | -47.1 | -6.7
Cc1noc(C)c1NC(=O)Nc1ccc2c(c1)CC(=O)N([C@H](C)CO)C[C@@H](C)[C@H](CN(C)Cc1ccc(Cl)c(Cl)c1)O2 | -5.0 | -13.3 | 4.1 | 71.8[16.7 µM] | 4.6 | 2.2
C[C@H](CO)N1C[C@H](C)[C@@H](CN(C)Cc2ccccc2)Oc2ccc(NC(=O)Nc3cccc4ccccc34)cc2CC1=O | 1.4 | -2.4 | 8.4 | -13.7[16.7 µM] | 56.2* | 15.1
Cc1noc(C)c1NC(=O)Nc1ccc2c(c1)CC(=O)N([C@@H](C)CO)C[C@H](C)[C@@H](CN(C)Cc1ccc(Cl)c(Cl)c1)O2 | -6.1 | -2.9 | -10.5 | 108.8*[16.7 µM] | 6.3 | 9.6
C[C@@H]1CN([C@@H](C)CO)C(=O)Cc2cc(NC(=O)Nc3cccc4ccccc34)ccc2O[C@@H]1CN(C)C(=O)NC1CCCCC1 | 6.1 | 2.1 | -20.1 | 167.0*[16.7 µM] | 15.8 | 21.9
C[C@H]1CN([C@@H](C)CO)C(=O)Cc2cc(NC(=O)Nc3cccc4ccccc34)ccc2O[C@H]1CN(C)C(=O)NC1CCCCC1 | -0.1 | -4.3 | 18.8 | 15.9[16.7 µM] | -1.9 | -5.4
C[C@@H]1CN([C@@H](C)CO)C(=O)Cc2cc(NC(=O)Nc3cccc4ccccc34)ccc2O[C@@H]1CN(C)Cc1ccc(Cl)c(Cl)c1 | 9.9* | -0.4 | 5.3 | -7.6[16.7 µM] | 11.4 | 1.2
C[C@H](CO)N1C[C@H](C)[C@H](CN(C)Cc2ccccc2)Oc2ccc(NC(=O)Nc3cccc4ccccc34)cc2CC1=O | -0.4 | -5.4 | 0.6 | 0.3[16.7 µM] | 2.5 | -0.9
O=C(NCC1(N2CCOCC2)CCCCC1)c1ccc(S(=O)(=O)Nc2ccccc2F)cc1 | 5.2 | 2.4 | 2.1 | 12.2 | / | -14.6
COC(=O)N1c2ccccc2CCc2ccccc21 | -0.3 | 0.0 | -26.1 | 5.0 | 11.6 | -1.3
Cn1cc(CN2CCN(c3ncccn3)CC2)c(-c2cccc(Cl)c2)n1 | 1.1 | -4.1 | -108.2 | 6.8 | 3.9 | 6.7
Cc1cc(N2CCN(Cc3cn(C)nc3-c3cccc(Cl)c3)CC2)cc(C)n1 | 1.6 | / | 22.3 | / | 57.7* | /
CC1CCc2c(sc3nc(C(C)(C)C)nc(N4CCN(C(=O)CCl)CC4)c23)C1 (configuration not stated) | -5.5 | -3.8 | / | -8.5 | 68.7* | -37.1
CCC(=O)N1CCN(c2nc(CC)nc3sc4c(c23)CCCC4)CC1 | 1.3 | 8.3 | -1.7 | -1.6 | 14.3 | 3.6
CC(C)C(CCNC1CCN(C)CC1)c1ccc(Cl)cc1 (configuration not stated) | -1.2 | -4.6 | -9.0 | -4.5 | 26.2 | -13.3
CN1CCC(NCCC(c2ccc(F)cc2)c2ccc(Cl)cc2)CC1 (configuration not stated) | 0.3 | / | -8.4 | / | 55.1* | /
N/C(=N\OC(=O)c1cc(Br)ccc1Cl)c1ccccn1 | -1.0 | / | 47.4 | 13.0 | 3.2 | /
Cc1ccc(C(=O)O/N=C(\N)c2ccccn2)c(Cl)c1 | 2.5 | -19.8 | 103.5* | 2.9 | 85.7* | -95.8
Cc1ccc(C(=O)O/N=C(\N)c2ccccc2)c(Cl)c1 | 1.8 | -8.5 | 97.1* | / | 75.1* | -79.6
N/C(=N\OC(=O)c1ccc([N+](=O)[O-])cc1Cl)c1ccccn1 | -3.5 | -3.6 | 94.7* | -8.4 | 71.8* | -87.0
N/C(=N\OC(=O)c1ccc(Cl)cc1Cl)c1ccccn1 | / | -0.5 | 92.6* | / | / | -89.8
N/C(=N\OC(=O)c1cc([N+](=O)[O-])ccc1Cl)c1ccccn1 | 1.6 | / | -21.9 | / | -6.0 | /
N#C/C(=C\c1ccccc1[N+](=O)[O-])C(=O)Nc1ccc(S(N)(=O)=O)cc1 | 1.5 | 3.9 | 14.7 | -10.1 | -3.4 | -7.8
CCOC(=O)c1nnn(-c2ccc([N+](=O)[O-])cc2)c1C | 1.8 | / | 4.9 | / | -6.3 | /
COc1cc(-c2noc(C)c2/C=C/c2cccc([N+](=O)[O-])c2)cc(OC)c1OC | 7.4 | -1.8 | 22.4 | 13.5 | 54.2* | -17.9
COc1cc(-c2noc(C)c2/C=C/c2ccc(C(=O)O)cc2)cc(OC)c1OC | -4.5 | -1.8 | -30.3 | -4.4 | 10.9 | -1.6
O=c1c2[nH]c3ccc(F)cc3c2ncn1CCCn1ccnc1 | / | 1.3 | / | 6.7 | / | -23.5
COc1ccccc1CNS(=O)(=O)c1cc(-c2cc(C)no2)ccc1C(C)C | 3.1 | 0.1 | -6.0 | 106.9* | 3.3 | -15.3
COc1ccc(OC)c(CNS(=O)(=O)c2cc(-c3cc(C)no3)ccc2OC)c1 | 0.5 | 7.2 | 4.5 | 13.4 | / | -18.7
CCOc1ccccc1CNS(=O)(=O)c1cc(-c2cc(C)no2)ccc1OC | 6.6 | -5.0 | -6.6 | 52.6 | 0.6 | 1.7
CCc1ccc(-c2cc(C)no2)cc1S(=O)(=O)Nc1ccc(C)cn1 | -0.2 | 0.0 | -1.0 | ? | 1.4 | -15.3
Cc1ccc(NS(=O)(=O)c2cc(-c3cc(C)no3)ccc2C(C)C)nc1 | 2.4 | 1.6 | -15.4 | 99.1* | -6.5 | 7.3
COc1ccc(-c2cc(C)no2)cc1S(=O)(=O)NCC(C)c1ccccc1 (configuration not stated) | -1.1 | -0.4 | -19.5 | 148.2* | -1.2 | -8.6
COc1ccc(/C=C\c2cc(OC)c(OC)cc2CC[N+](C)(C)C)cc1OC | -2.7 | -5.4 | / | / | 5.6 | -2.9
CN1C(=O)c2cc(NC(=O)c3cscn3)ccc2OC[C@@H]2O[C@@H](CC(=O)NCC3CC3)CC[C@H]21 | -2.0 | 1.6 | -2.3 | 25.0[16.7 µM] | 1.0 | -3.5
Cn1c(=O)c2sccc2n2c(CCCC(=O)N3CCN(c4ccccn4)CC3)nnc12 | 2.0 | 3.2 | -4.0 | 1.5 | -22.4 | -2.4
CC(C)Oc1ccc(S(=O)(=O)N2CCOCC2)cc1NC(=O)Cc1ccsc1 | 1.2 | 5.8 | 10.0 | 12.5 | 17.3 | -19.3
C/C(=N\Nc1ncnc2sc(C)c(C)c12)c1ccccn1 | 21.4* | -1.7 | -2.7 | -24.8 | 7.0 | -74.1
CC(=O)c1c(C)[nH]c(C(=O)OCC(=O)NCCc2ccc(Cl)cc2)c1C | / | / | 23.0 | 1.5 | / | /
CC(=O)c1c(C)[nH]c(C(=O)OCC(=O)NCc2ccc(Cl)cc2)c1C | 11.6* | 5.1 | -5.0 | -5.1 | 9.4 | -7.6
O=C(Nc1nnc(SCC(=O)N2CCCc3ccccc32)s1)c1cccc2ccccc12 | / | / | 21.6 | / | 87.6* | /

Ordered by formula weight (descending): part of the list above.
SMILES | CFTR F508del cor | PglD inh | LGR2 antag | miR-122 sensor | EWS-Fli block | UUG fidelity
Cc1noc(C)c1NC(=O)Nc1ccc2c(c1)CC(=O)N([C@H](C)CO)C[C@@H](C)[C@H](CN(C)Cc1ccc(Cl)c(Cl)c1)O2 | -5.0 | -13.3 | 4.1 | 71.8[16.7 µM] | 4.6 | 2.2
C[C@H](CO)N1C[C@H](C)[C@@H](CN(C)Cc2ccccc2)Oc2ccc(NC(=O)Nc3cccc4ccccc34)cc2CC1=O | 1.4 | -2.4 | 8.4 | -13.7[16.7 µM] | 56.2* | 15.1
O=C(CCc1ccc(S(=O)(=O)NCCc2ccccc2)cc1)NCc1ccc2c(c1)OCO2 | / | -7.2 | / | 196.0* | / | -17.3
Cn1cc(CN2CCN(c3ncccn3)CC2)c(-c2cccc(Cl)c2)n1 | 1.1 | -4.1 | -108.2 | 6.8 | 3.9 | 6.7
N/C(=N\OC(=O)c1ccc([N+](=O)[O-])cc1Cl)c1ccccn1 | -3.5 | -3.6 | 94.7* | -8.4 | 71.8* | -87.0
O=c1c2[nH]c3ccc(F)cc3c2ncn1CCCn1ccnc1 | / | 1.3 | / | 6.7 | / | -23.5
